# Antibody variant affinities, Ab-14 heavy chain, assay 1

Target: peptide PDVDLGDISGINAS, taken from heptad repeat 2 (HR2) of SARS-CoV-2 spike.

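The library (AAYL49) carries one to three amino acid substitutions per variant, with no insertions or deletions. Affinity was read by AlphaSeq, a pooled yeast mating assay with surface-displayed partners. After mating in shaken culture at 30 °C for 16 h, diploids were selected and their barcode pairs sequenced. Scores were corrected for input abundance and mapped to Kd with protein pairs of known affinity run in the same pool. There are three technical replicates.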

Parent scFv Ab-14: VH joined to VL by a 15-residue (Gly4Ser)3 linker. Changes lie in the heavy chain CDRs alone.
VH: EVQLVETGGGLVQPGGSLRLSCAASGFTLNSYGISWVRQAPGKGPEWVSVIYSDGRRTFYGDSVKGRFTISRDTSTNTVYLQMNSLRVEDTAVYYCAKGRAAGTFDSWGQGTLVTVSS
VL: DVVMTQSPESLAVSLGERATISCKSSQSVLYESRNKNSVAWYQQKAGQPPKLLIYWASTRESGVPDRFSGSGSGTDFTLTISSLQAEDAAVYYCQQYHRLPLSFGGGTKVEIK

Each variant is given by its three heavy chain CDRs, as the data file delimits them; those of the parent are GFTLNSYGIS, VIYSDGRRTFYGDSVK, GRAAGTFDS. Values are log10 of the apparent Kd in nM; lower means stronger binding. An entry "ND" has no value in the source: the pair was not observed among the diploids in that replicate. This suggests poor binding but is not conclusive. In this assay the parent's reference entry averaged 0.65; its copy inside this library read 4.11 (one replicate of three). Nonspecific signal, from three strains lacking the peptide, appeared in 15% of pairings of library AAYL49, centred on 4.06 (5% of these signals below 2.83); values are not corrected for it. For each scFv, signals with the empty controls are counted beside the result.

For GFTGNSYGIS | EIYSDGRCTFYGDSVK | GRAAGTFDS, the assay gave ND, ND, 3.72 (controls 3 of 9).
For GFTLNSYGIS | VICTDGRRTFIGDSVK | GRAAGTFDS, the assay gave 4.67, ND, ND (controls 2 of 9).
For GITLRYYGIS | VIYSDGRRTFYGDSVK | GRAAGTFDS, the assay gave 4.00, 2.78, 3.77 (controls 3 of 9).
For GFTLNSYGIS | VIYSDGRRTFYKDSYK | GRNAGTFDS, the assay gave 2.97, ND, 1.89 (controls 1 of 9).
For RDTLNSYGIS | VIYSDGRHTFYGDSVK | GRAAGTFDS, the assay gave 1.54, ND, ND (controls 0 of 9).
For GFVLNSYGIS | VIYYDGRRTIYGDSVK | GRAAGTFDS, the assay gave 3.49, 2.85, 4.06 (controls 2 of 9).
For GFTVNSYGIS | VGYGDGRRTFYGDSVK | GRAAGTFDS, the assay gave ND, ND, ND (controls 0 of 9).
For GFTLNSYGIS | VIYNDFRRTFYGDSVK | NRAAGTFDS, the assay gave ND, 3.93, ND (controls 0 of 9).
For GFTLNSYGIS | VIYSDGRRSFYGDSTK | GRFAGTFDS, the assay gave ND, 4.73, ND (controls 1 of 9).
For GFTLNSYGIS | VIYSDGRRTFYGTSVL | GRAVGTFDS, the assay gave 3.29, 3.00, 2.93 (controls 4 of 9).
For GFTSNSYGIS | VIYSDGRRTFYGDSVK | GLFAGTFDS, the assay gave ND, ND, ND (controls 0 of 9).
For GFTLNSYGIS | VIYSDGRRTGHGDSVK | GRASGTFDS, the assay gave ND, ND, ND (controls 2 of 9).
For GFTLNSYGIS | VIYSDGRHTFYGDSVK | GHAAGYFDS, the assay gave 3.42, 3.99, 3.34 (controls 2 of 9).
For GFTLNSYGIS | VIYNDGDRTFYGDQVK | GRAAGTFDS, the assay gave ND, ND, ND (controls 0 of 9).
For GFTLNYYGIS | VIYSDGRRTFYMDSVK | GRAVGTFDS, the assay gave ND, ND, ND (controls 0 of 9).
For GFTWNSYQIS | VIYSDGRRTFYGDSVK | GRAAGTPDS, the assay gave ND, ND, ND (controls 1 of 9).
For GFTLNSYGIS | VKYSDGRRTKYGKSVK | GRAAGTFDS, the assay gave ND, ND, ND (controls 2 of 9).
For LFTTNSYGIS | VIYSDGRRTFTGDSVK | GRAAGTFDS, the assay gave ND, ND, ND (controls 1 of 9).
For GFTLNSYGIH | VIYSDGRRCFYGDSVK | GRAAGTFDS, the assay gave 1.43, 1.51, 1.55 (controls 2 of 9).
For GFTLNSYGIS | RFYSDGRRTFYGDSVK | GRAARTFDS, the assay gave ND, ND, ND (controls 0 of 9).
For GFTLNSYGIS | VIYSDGRRTHYGHSVK | GRAAGTFDS, the assay gave 4.38, 2.98, 3.79 (controls 4 of 9).
For GFTLNSYGIS | VIYSDGRRTFYGDSVK | GRRPGTFDS, the assay gave 2.77, 2.46, 2.45 (controls 4 of 9).
For GRTLNSYGIS | VIYSDYRRTFYGDSVK | GRQAGTFDS, the assay gave ND, ND, ND (controls 1 of 9).
For GFTLNSYGIS | VIYSDGRETFYGQSVK | KRAAGTFDS, the assay gave ND, ND, ND (controls 1 of 9).
For GFTLNHYGIF | VIYSDGRRTFYGDSVN | GRAAGTFDS, the assay gave ND, ND, ND (controls 2 of 9).
For GFTLNSYGIS | VIYGDGRRTFYCDSVK | GRAAVTFDS, the assay gave ND, 2.45, 3.41 (controls 1 of 9).
For GFTLNSPKIS | VIYSDGRRTFYADSVK | GRAAGTFDS, the assay gave 2.12, 1.98, 2.36 (controls 5 of 9).
For GFTLNSYGNS | KIYSDGRRDFYGDSVK | GRAAGTFDS, the assay gave ND, 4.86, ND (controls 2 of 9).
For GFTLNSTGIS | VIYSDTRRTFYGDSVK | GRAAGTKDS, the assay gave ND, ND, ND (controls 0 of 9).
For GFTLNSYGIS | VIYSDFRRTNYGNSVK | GRAAGTFDS, the assay gave ND, 3.79, 5.75 (controls 4 of 9).
For EFTLNSYHIS | VIYSDGRRTFYGDKVK | GRAAGTFDS, the assay gave ND, ND, ND (controls 0 of 9).

The closing 3 entries, repeated:

CDR-H1	CDR-H2	CDR-H3	log10 Kd, replicates	control signals
GFTLNSTGIS	VIYSDTRRTFYGDSVK	GRAAGTKDS	ND, ND, ND	0 of 9
GFTLNSYGIS	VIYSDFRRTNYGNSVK	GRAAGTFDS	ND, 3.79, 5.75	4 of 9
EFTLNSYHIS	VIYSDGRRTFYGDKVK	GRAAGTFDS	ND, ND, ND	0 of 9

Values reported by Engelhart et al. 2022, doi:10.1038/s41597-022-01779-4 (FLAb copy).